Patent publication US8729279B2, “Agent for promoting osteoblast differentiation, pharmaceutical composition for promoting bone formation, and food for special dietary use containing auraptene analog as active ingredient” (Erina Co., Inc., priority 2010, dated 2014)

What was measured:
MC3T3-E1 cells [1] = test: Comparison with BMP-2 and effect of BMP signal inhibitors on ALP activity; format: cell-based, mouse; settings: auraptene 30 μM or BMP-2 25 ng/ml, 6 days
Experimental: In addition, the activity of alkaline phosphatase (ALP), a marker enzyme of initial osteoblast differentiation, was measured by the following method. After incubation, the cells were fixed with cold methanol, and the dishes were dried. 100 μl of buffer of pH 8.5 containing 2 mM magnesium chloride and 100 mM Tris-HCl, with 6.7 mM p-nitrophenylphosphate as a substrate, was dispensed in each well and allowed to react at 37° C. for 30 minutes. Then, 100 μl of 0.1 N sodium hydroxide was added to terminate the reaction, followed by measurement with a plate reader of the absorbance at 405 nm, which was determined to be the ALP activity. The value was calculated by taking the control as 100. […]
BMP-2 and auraptene were added at 25 ng/ml and 30 μM, respectively. Upon the addition of the sample, the cells were cultured for 6 days in the presence or absence of 10 ng/ml Noggin, a BMP inhibitor, or 1 μM Dorsomorphin, an inhibitor of type I BMP receptor (ALK) (the above concentrations are the final concentrations), and the ALP activities were measured in the same manner as above. […]

MC3T3-E1 cells [2] = test: Expression of genes related to osteoblast differentiation, real-time RT-PCR; format: cell-based, mouse; settings: auraptene 30 μM or BMP-2 50 ng/ml, compared with control
Experimental: The effects on the expression of various genes related to osteoblast differentiation were analyzed using the real-time RT-PCR method.
MC3T3-E1 cells were plated in each well of a 6-well plate (Greiner) at a concentration of 1.5×10^5 cells/well and cultured in the same manner as above. After reaching confluent, the culture medium was replaced with the culture medium containing auraptene (30 μM) or BMP-2 (50 ng/ml) and cultured for 0 to 14 days. After incubation, the culture medium was removed and the cells were washed with PBS. Thereafter, “ISOGEN” (trade name, Wako Pure Chemical Industries, Ltd.) was added in an amount of 1 ml/well and the cells were collected. RNA purification was conducted according to the protocol described in the package insert of “ISOGEN”.
Reverse transcription was performed using “PrimeScript RT-PCR Kit” (trade name, TaKaRa) with 2 μg of purified RNA according to the protocol described in the package insert, thereby synthesizing the cDNA sample.
Real-time PCR was performed using “FastStart Universal SYBR Green Master (Rox)” (trade name, Roche) according to the protocol described in the package insert under the following conditions: incubation at 50° C. for 2 min and at 95° C. for 10 min, followed by 50 cycles of 15 sec at 95° C. and 1 min at 60° C. Data were analyzed with “ABI PRISM 7300 sequence detection system” (trade name, Applied Biosystems).
Primers used were as described in the following Table 2.
Data analysis was performed as follows using β-actin as an endogenous control gene by the comparative Ct method.
Δ Ct=(Ct of target gene)−(Ct of endogenous control gene)
ΔΔ Ct=(Δ Ct of target sample)−(Δ Ct of reference sample)
Relative expression level of target gene of target sample to that of reference sample=2 (^−ΔΔ^Ct)

B1: BMP-2: osteogenic factor (Bone morphogenetic protein 2), a cytokine known for potent bone formation promoting action; positive control (protein, UniProt P12643 283-396, looked up)
Bone morphogenetic protein 2: QAKHKQRKRLKSSCKRHPLYVDFSDVGWNDWIVAPPGYHAFYCHGECPFPLADHLNSTNHAIVQTLVNSVNSKIPKACCVPTELSAISMLYLDENEKVVLKNYQDMVVEGCGCR
increased: expression of ALP gene (MC3T3-E1 cells [2]; FIG. 5A) | expression of osteocalcin gene (MC3T3-E1 cells [2]; FIG. 5B) | expression of Runx 2 gene (MC3T3-E1 cells [2]; FIG. 5C) | expression of Osterix gene (MC3T3-E1 cells [2]; FIG. 5D)
diminished: effect of promoting ALP activity in presence of Dorsomorphin (MC3T3-E1 cells [1]; Dorsomorphin 1 μM) | effect of promoting ALP activity in presence of Noggin (MC3T3-E1 cells [1]; Noggin 10 ng/ml)
